{"source": "PubChem BioAssay AID977610", "origin": "cited, not measured here", "target": "Enteroccocus faecalis thymidylate synthase (EfTS)", "test": "PubChem AID 977610", "details": "PDB protein-ligand complexes, literature Ki; protein: Enteroccocus faecalis thymidylate synthase (EfTS); PDB entry 3UWL"}
{"molecule": "Nc1nc2c(c(=O)[nH]1)N(C=O)[C@@H](CNc1ccc(C(=O)N[C@@H](CCC(=O)O)C(=O)O)cc1)CN2", "values": [{"measurement": "Ki", "result": 208, "unit": "µM"}]}
